Data taken from US8058233B2, “Modification of feeding behavior using PYY and GLP-1” (Oregon Health and Science University, priority 2002, dated 2011).

Experiments:
[1] = Human study: 90 minute intravenous PYY3-36 infusion, double-blind crossover, non-obese volunteers; format: in vivo
[2] = Plasma PYY3-36 after subcutaneous administration to human subjects; format: in vivo; conditions: 10 nmoles and 20 nmoles in saline; FIG. 10

time for plasma concentrations to return to basal post-infusion ([1]; after 90 minute infusion): ≤ 30 min | sensations of fullness or nausea ([1]; reported by the volunteers): no difference | plasma levels of PYY3-36 after subcutaneous administration [2]: raised plasma levels
Structure (SMILES): CC[C@H](C)[C@H](N)C(=O)N[C@@H](CCCCN)C(=O)N1CCC[C@H]1C(=O)N[C@@H](CCC(=O)O)C(=O)N[C@@H](C)C(=O)N1CCC[C@H]1C(=O)NCC(=O)N[C@@H](CCC(=O)O)C(=O)N[C@@H](CC(=O)O)C(=O)N[C@@H](C)C(=O)N[C@@H](CO)C(=O)N1CCC[C@H]1C(=O)N[C@@H](CCC(=O)O)C(=O)N[C@@H](CCC(=O)O)C(=O)N[C@@H](CC(C)C)C(=O)N[C@@H](CC(N)=O)C(=O)N[C@@H](CCCN=C(N)N)C(=O)N[C@@H](Cc1ccc(O)cc1)C(=O)N[C@@H](Cc1ccc(O)cc1)C(=O)N[C@@H](C)C(=O)N[C@@H](CO)C(=O)N[C@@H](CC(C)C)C(=O)N[C@@H](CCCN=C(N)N)C(=O)N[C@@H](Cc1cnc[nH]1)C(=O)N[C@@H](Cc1ccc(O)cc1)C(=O)N[C@@H](CC(C)C)C(=O)N[C@@H](CC(N)=O)C(=O)N[C@@H](CC(C)C)C(=O)N[C@H](C(=O)N[C@H](C(=O)N[C@@H](CCCN=C(N)N)C(=O)N[C@@H](CCC(N)=O)C(=O)N[C@@H](CCCN=C(N)N)C(=O)N[C@@H](Cc1ccc(O)cc1)C(N)=O)[C@@H](C)O)C(C)C [PYY3-36]
scores for sleepiness or sickness ([1]; infusion): but not in the scores for sleepiness or sickness
